The values below are quoted from earlier work in patent US7622470B2, “Treatment of T-cell lymphoma using 10-propargyl-10-deazaaminopterin” (Sloan-Kettering Institute for Cancer Research, priority 2004, dated 2009).

The test system of this data set is E0771 murine mammary tumor. To be noted: highest dose used; 3 mice per dosage; cited from earlier work.

For the substance 10-Propargyl-10-deazaaminopterin, the “Toxicity to the mice” value is recorded as “toxic to the mice”.
